The list shows a part of the results, in another mix than the full data. Active and inactive are the calls of the source. How the calls were made is not given here.
These compounds were tested against Regulator of G-protein signaling 16 (Homo sapiens) + Guanine nucleotide-binding protein G(o) subunit alpha (Homo sapiens) (UniProt O15492+P09471) (assay: RGS16-Galphao interaction inhibitors and enhancers – biochemical, human proteins, multiplexed bead flow cytometry, primary screen (AID 1441;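 further: Galphao activated by GDP with aluminum fluoride before binding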)). Conditions: bead-based flow cytometry RGS16-Galphao binding, fluorescence; at 10 µM; actives lie on both sides.

Protein sequences, listed by entry. Tags and fused reporters are not part of them.
UniProt O15492, whole entry, looked up: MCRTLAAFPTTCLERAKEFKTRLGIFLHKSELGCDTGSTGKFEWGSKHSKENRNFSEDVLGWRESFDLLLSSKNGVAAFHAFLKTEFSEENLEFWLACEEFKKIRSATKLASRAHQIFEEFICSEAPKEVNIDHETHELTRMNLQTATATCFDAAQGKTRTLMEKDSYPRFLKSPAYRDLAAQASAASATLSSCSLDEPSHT
UniProt P09471, whole entry, looked up: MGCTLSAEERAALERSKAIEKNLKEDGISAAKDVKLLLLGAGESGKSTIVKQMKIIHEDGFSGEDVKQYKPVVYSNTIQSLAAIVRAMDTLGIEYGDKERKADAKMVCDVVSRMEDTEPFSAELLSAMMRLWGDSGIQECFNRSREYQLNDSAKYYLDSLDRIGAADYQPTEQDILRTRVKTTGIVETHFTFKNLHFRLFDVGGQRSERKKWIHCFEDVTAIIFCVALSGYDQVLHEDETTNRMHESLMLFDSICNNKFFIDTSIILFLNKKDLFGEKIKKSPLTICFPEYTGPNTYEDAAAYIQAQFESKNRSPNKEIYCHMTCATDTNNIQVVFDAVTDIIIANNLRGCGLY

Structure (SMILES)	binding response (% of control)
COc1ccc(OP(C)(=O)Nc2cccc(F)c2)cc1 (stereo unspecified)	inactive: 87.2%
O=[N+]([O-])c1cc([N+](=O)[O-])c(-c2ccn[nH]2)s1	inactive: 105%
CC(C)NC(=O)NP(=O)(Oc1ccccc1)Oc1ccccc1	inactive: 93.1%
COc1ccccc1OP(C)(=O)Nc1cc(Cl)ccc1C (stereo unspecified)	inactive: 107%
CCN(CC)C(=S)SC(NC=O)C(Cl)(Cl)Cl (stereo unspecified)	inactive: 106%
Cc1cc(C)cc(OP(C)(N)=O)c1 (stereo unspecified)	inactive: 100%
CCOC(=O)c1ccc(NP(C)(=O)Oc2ccccc2)cc1 (stereo unspecified)	inactive: 101%
CC(C)c1ccc(OP(=O)(Nc2ccccn2)Oc2ccccc2F)cc1 (stereo unspecified)	inactive: 76.2%
Cc1ccc(NP(C)(=O)Oc2ccccc2)c(C)c1 (stereo unspecified)	inactive: 103%
COc1ccccc1OP(C)(=O)Nc1ccc(C)cc1 (stereo unspecified)	inactive: 64.3%
Cc1cccc(C)c1OP(C)(N)=O (stereo unspecified)	inactive: 105%
Cc1ccc(OP(=O)(Nc2ccc([N+](=O)[O-])cn2)Oc2ccc(C)cc2)cc1	inactive: 99.7%
CC(C)(C)c1ccc(OP(C)(=O)Nc2ccc(SC(F)(F)F)cc2)cc1 (stereo unspecified)	inactive: 93.7%
O=[N+]([O-])c1ccc2c(c1)C=Nc1ccccc1O2	inactive: 112%
O=[As](O)(c1ccc(O)cc1)c1ccccc1O	inactive: 98.3%
C[As](=O)(O)c1cccc(C(=O)O)c1	inactive: 80.6%
COc1ccc(N/C(=N/P(=O)(N2CCOCC2)N2CCOCC2)N2CCOCC2)cc1	inactive: 115%
COc1ccc2nc(NP(=O)(c3ccccc3)c3ccccc3)sc2c1	inactive: 113%
Cc1c2c(nc3ccccc13)SC(C(Cl)Cl)C2 (stereo unspecified)	inactive: 94.6%
CCN(CC)CCCOC(=O)C(O)(c1ccccc1)c1ccccc1	inactive: 99.6%
Cc1cc(=O)[nH]c(N[N+](=O)[O-])n1	inactive: 113%

Reference: PubChem BioAssay AID1441 (NMMLSC, 2008)
